# Measured values reported in US20220267754A1, “VECTOR-BASED MUTAGENESIS SYSTEM” (priority 2015, published 2022).
# Test system: E. coli MG1655 ΔrecA::apra
# Experiment: Evolution of novel antibiotic resistance
# Assay type: cell-based
substance,measurement,setting,value
methylnitronitrosoguanidine,"fraction of cells resistant, CTX",5 μg/mL cefotaxime,3.67E−07
same,"fraction of cells resistant, TET",10 μg/mL tetracycline,0.00E+00
same,"fraction of cells resistant, KAN",30 μg/mL kanamycin,5.33E−04
same,"fraction of cells resistant, CRB","50 μg/mL carbenicillin, plated after overnight culture without selection",0.00E+00
same,"fraction of cells resistant, STR",50 μg/mL streptomycin,2.44E−07
same,"fraction of cells resistant, FOS",100 μg/mL fosfomycin,1.22E−04
same,"fraction of cells resistant, RIF",100 μg/mL rifampin,5.56E−06
same,"fraction of cells resistant, SPC",100 μg/mL spectinomycin,3.67E−05
same,"fraction of cells resistant, MIX","MTX, 100 μg/mL metronidazole",3.22E−05
